This is a selection; strong and weak results do not stand in their true shares. Activity calls are given as the source filed them.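 Rule for the calls: active = inhibition above the campaign cutoff, the mean of compounds within control limits plus 3 SD (cut at about 14% in these data); inactive = the rest.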
Biological target: Fibrinogen beta chain (Homo sapiens) (UniProt P02675)
Experiment: inhibitors of Tn7 peptide binding to fibrin DD(E), confirmation, biochemical, fluorescence polarization, human fibrin, Tn7 probe (AID 720628);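 note: 100% = median FP of high control wells holding Aha-Tn7 inhibitor peptide; displacers lower polarization since freed probe rises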
Details: FP displacement of TRITC-Tn7 peptide from DD(E); at 8.3 µM; hits give high values; 0% set at plate's compound-well median

The chains behind the UniProt entries cited, without tags or fusion partners. Where a name states a change or a piece, a line headed by the entry shows the natural chain unless it says otherwise.
UniProt P02675: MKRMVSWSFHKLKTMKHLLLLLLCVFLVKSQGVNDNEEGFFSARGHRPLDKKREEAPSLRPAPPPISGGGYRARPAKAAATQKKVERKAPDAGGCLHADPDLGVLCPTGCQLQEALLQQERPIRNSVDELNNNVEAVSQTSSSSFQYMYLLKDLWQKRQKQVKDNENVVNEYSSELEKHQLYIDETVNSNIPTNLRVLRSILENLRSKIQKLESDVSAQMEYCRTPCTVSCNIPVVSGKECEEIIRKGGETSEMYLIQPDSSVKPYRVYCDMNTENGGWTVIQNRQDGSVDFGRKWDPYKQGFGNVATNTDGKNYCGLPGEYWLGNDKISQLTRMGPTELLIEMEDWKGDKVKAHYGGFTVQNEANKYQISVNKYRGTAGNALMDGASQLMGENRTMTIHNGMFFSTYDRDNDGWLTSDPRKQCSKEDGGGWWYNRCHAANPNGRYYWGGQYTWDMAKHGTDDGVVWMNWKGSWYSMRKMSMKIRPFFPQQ

**Q.** For `Nc1cccc2c([As](=O)(O)O)cccc12`, which inhibition is on record?
**A.** inactive: 3.01%

— PubChem BioAssay AID720628 (The Scripps Research Institute Molecular Screening Center, 2013)
